Test results as given in publication PMC10683372 (Protein Science : A Publication of the Protein Society, 2023).

Target: T1, α‐thrombin (αT) (Homo sapiens, UniProt P00734)
T1 construct: goes from Thr1 of the A-chain to Glu295 of the B-chain
Experiment: Tight-binding inhibition of αT amidolytic activity on chromogenic substrate S2238
Format: biochemical

SMILES: CCCC[C@H](NC(=O)CNC(=O)[C@H](Cc1cccc2ccccc12)NC(=O)[C@H](CCCNC(=N)N)NC(=O)[C@@H](N)[C@@H](C)CC)C(=O)NCC(=O)N[C@@H](CCCCN)C(=O)N[C@H](C(=O)N1CCC[C@H]1C(=O)NCC(=O)O)C(C)C [Phe3αNal]
- Ki: 2300 ± 100 nM
